# Test results as given in US11337988B2, “Use of ouabain antagonists to inhibit viral infection” (priority 2018, dated 2022).
# What was measured:
# [1] = target: ATP1A1 (Homo sapiens, UniProt P05023); experiment: Immunofluorescence microscopy of ATP1A1 expression and localization in uninfected A549 cells; details: 24 h treatment, 25 nM ouabain or 20 μM PST2238
# [2] = test system: RSV-GFP; experiment: RSV-GFP infection of A549 cells, GFP intensity of total well by ELISA reader; details: A549 pre-treated overnight, 25 nM ouabain or 20 μM PST2238 present throughout, RSV-GFP MOI=1 PFU/cell, 17 h p.i.
# [3] = test system: RSV-GFP; experiment: Time of addition experiment, RSV-GFP in A549 cells, GFP by flow cytometry; details: A549, RSV-GFP MOI=3 PFU/cell, 25 nM ouabain or 20 μM PST2238, analyzed 24 h p.i.
SMILES,"ATP1A1 level, expression and localization [1]",reduction of viral GFP expression compared to mock-treated cells [2],"inhibition of infection, inhibitor added at 10 h p.i. [3]"
"C[C@]12CC[C@H](O)C[C@H]1CC[C@@H]1[C@@H]2CC[C@]2(C)[C@@](O)(c3ccoc3)CC[C@]12O [PST2238, (3β,5β,14β)-21,23-Epoxy-24-norchola-20,22-diene-3,14,17-triol]",no discernible effect,89%,almost completely lost
"C[C@@H]1O[C@@H](O[C@H]2C[C@@H](O)[C@]3(CO)[C@@H]4[C@@H](CC[C@]3(O)C2)[C@@]2(O)CCC(C3=CC(=O)OC3)[C@@]2(C)C[C@@H]4O)[C@H](O)[C@H](O)[C@H]1O (stereo partly drawn) [ouabain, (1β,3β,5β,11α)-3-[(6-Deoxy-α-L-mannopyranosyl)oxy]-1,5,11,14,19-pentahydroxycard-20(22)-enolide]",greatly reduced,96%,almost completely lost
